Measured values: patent US20250313563A1, “GLYCOGEN SYNTHASE KINASE 3 INHIBITORS AND USES THEREOF” (The Broad Institute, Inc., priority 2022, published 2025)
Read-outs that look alike come from different tables or passages of the source. Values belong to the molecule of their own block, whether it stands above or below them.

By UniProt entry, the sequences of proteins in these tests, tags left out.
UniProt P49840, whole entry: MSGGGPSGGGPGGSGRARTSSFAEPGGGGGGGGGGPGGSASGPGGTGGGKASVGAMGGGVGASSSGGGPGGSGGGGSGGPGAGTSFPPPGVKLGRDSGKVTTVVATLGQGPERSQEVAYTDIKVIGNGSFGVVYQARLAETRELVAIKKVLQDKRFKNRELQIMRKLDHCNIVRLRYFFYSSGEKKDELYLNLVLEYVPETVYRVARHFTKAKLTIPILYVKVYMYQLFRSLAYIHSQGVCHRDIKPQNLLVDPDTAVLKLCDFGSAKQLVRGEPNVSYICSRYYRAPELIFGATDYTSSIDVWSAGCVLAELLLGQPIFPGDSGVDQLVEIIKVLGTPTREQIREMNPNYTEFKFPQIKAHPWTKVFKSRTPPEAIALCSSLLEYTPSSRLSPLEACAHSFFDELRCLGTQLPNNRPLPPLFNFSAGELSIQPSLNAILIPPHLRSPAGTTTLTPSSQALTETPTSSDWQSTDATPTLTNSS
UniProt P49841, whole entry: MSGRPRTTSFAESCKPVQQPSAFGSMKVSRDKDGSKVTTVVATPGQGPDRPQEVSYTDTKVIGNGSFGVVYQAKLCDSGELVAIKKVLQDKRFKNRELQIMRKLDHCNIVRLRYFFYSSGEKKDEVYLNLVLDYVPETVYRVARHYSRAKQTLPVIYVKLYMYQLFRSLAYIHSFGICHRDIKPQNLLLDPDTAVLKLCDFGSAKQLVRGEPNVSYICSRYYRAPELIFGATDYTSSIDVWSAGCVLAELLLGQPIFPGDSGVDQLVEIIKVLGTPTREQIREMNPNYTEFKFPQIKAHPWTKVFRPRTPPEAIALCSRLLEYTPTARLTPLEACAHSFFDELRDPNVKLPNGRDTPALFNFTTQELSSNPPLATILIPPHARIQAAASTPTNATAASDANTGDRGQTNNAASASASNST

Columns and labels:
[1] = target: GSK3α (GST-full length GSK3α) (Homo sapiens (Human), UniProt P49840); test: GSK3α TR-FRET kinase assay; type: biochemical
[2] = target: GSK3b (GST-full length GSK3b) (Homo sapiens (Human), UniProt P49841); test: GSK3b TR-FRET kinase assay; type: biochemical
[3] = read-out: GSK3-A TR-FRET BIOCHEMICAL (TR-FRET), IC50, 1 nM GSK3α, 4 μM ATP, 30 minute preincubation (Table 16)
[4] = read-out: GSK3-B TR-FRET BIOCHEMICAL (TR-FRET), IC50, 1 nM GSK3b, 2 μM ATP, 30 minute preincubation (Table 16)
[5] = read-out: GSK3-A TR-FRET BIOCHEMICAL (TR-FRET);, 1 nM GSK3α, 4 μM ATP, 30 minute preincubation, Table 16
[6] = read-out: GSK3-B TR-FRET BIOCHEMICAL (TR-FRET);, 1 nM GSK3b, 2 μM ATP, 30 minute preincubation, Table 16
[7] = read-out: GSK3-A TR-FRET BIOCHEMICAL (TR-FRET), GMean, IC50, 1 nM GSK3α, 4 μM ATP, 30 minute preincubation, geometric mean
[8] = read-out: GSK3-B TR-FRET BIOCHEMICAL (TR-FRET), GMean, IC50, 1 nM GSK3b, 2 μM ATP, 30 minute preincubation, geometric mean
[9] = read-out: GSK3-A TR-FRET BIOCHEMICAL (TR-FRET), IC50, 1 nM GSK3α, 4 μM ATP, 30 minute preincubation
[10] = read-out: GSK3-B TR-FRET BIOCHEMICAL (TR-FRET), IC50, 1 nM GSK3b, 2 μM ATP, 30 minute preincubation
[11] = read-out: GSK3-A (TR-FRET 1 mM ATP), GMean, IC50, 1 mM ATP, geometric mean
[12] = read-out: GSK3-B (TR-FRET 1 mM ATP), GMean, IC50, 1 mM ATP, geometric mean

IC50 [1, 3]: < 100 nM
IC50 [2, 4]: 100 to 1000 nM
Structure (SMILES): CC[C@@]1(c2cccc(C(F)(F)F)c2)C2=C(CCN(c3cnsc3)C2=O)Nc2n[nH]cc21

IC50 [1, 3]: < 100 nM
IC50 [2, 4]: < 100 nM
Structure (SMILES): CC[C@@]1(c2cccc([C@@H]3CCOC3)c2)C2=C(CC(C)(C)CC2=O)Nc2n[nH]cc21

IC50 [1, 5]: 100 to 1000 nM
IC50 [2, 6]: 1000 to 5000 nM
Structure (SMILES): CCC1(c2cccc(-c3ccnc(C(C)(C)C)c3)c2)C2=C(CC(C)(C)CC2=O)Nc2n[nH]cc21 (centres unmarked)

IC50 [1, 9]: < 100 nM
IC50 [2, 10]: < 100 nM
Structure (SMILES): CC1(C)CC(=O)C2=C(C1)Nc1n[nH]cc1[C@@]21COC2(CN(C(=O)C3CCCC3)C2)C1

IC50 [1, 5]: < 100 nM
IC50 [2, 6]: < 100 nM
Structure (SMILES): CC[C@@]1(c2cccc(-c3cc(C)ncc3C)c2)C2=C(CC(C)(C)CC2=O)Nc2n[nH]cc21

IC50 [1, 11]: < 100 nM
IC50 [1, 7]: < 100 nM
IC50 [2, 12]: < 100 nM
IC50 [2, 8]: < 100 nM
Structure (SMILES): CC[C@@]1(c2cccc(-c3cnn(C)c3C)c2)C2=C(CC(C)(C)NC2=O)Nc2n[nH]c(C(F)(F)F)c21

IC50 [1, 5]: > 5000 nM
IC50 [2, 6]: > 5000 nM
Structure (SMILES): CC[C@]1(c2cccc(N(C)c3ccnc(OC)c3)c2)C2=C(CC(C)(C)CC2=O)Nc2n[nH]cc21

IC50 [1, 3]: < 100 nM
IC50 [2, 4]: 100 to 1000 nM
Structure (SMILES): CC[C@@]1(c2cccc(-c3cc(C)nc(C)c3)c2)C2=C(CC(C)(C)CC2=O)Nc2n[nH]cc21

IC50 [1, 11]: < 100 nM
IC50 [1, 5]: < 100 nM
IC50 [2, 12]: 100 to 1000 nM
IC50 [2, 6]: < 100 nM
Structure (SMILES): CCC1(c2cccc(-c3ccnc(C)c3C)c2)C2=C(CC(C)(C)CC2=O)Nc2n[nH]c(C(F)(F)F)c21 (centres unmarked)

IC50 [1, 3]: < 100 nM
IC50 [2, 4]: 100 to 1000 nM
Structure (SMILES): CCC1(c2cccc(C(C)C)c2)C2=C(CC(C)(C)NC2=O)Nc2n[nH]cc21 (centres unmarked) [Compound 949761]

IC50 [1, 3]: 1000 to 5000 nM
IC50 [2, 4]: > 5000 nM
Structure (SMILES): CC[C@]1(c2cccc(C)c2)C2=C(CC(C)(C)CC2=O)Nc2n[nH]c(C(F)(F)F)c21

IC50 [1, 3]: < 100 nM
IC50 [2, 4]: < 100 nM
Structure (SMILES): CC[C@@]1(c2cccc(N(C)c3cccc(F)n3)c2)C2=C(CC(C)(C)CC2=O)Nc2n[nH]cc21

IC50 [1, 3]: 100 to 1000 nM
IC50 [2, 4]: 100 to 1000 nM
Structure (SMILES): CC[C@]1(c2cccc(-c3cn(C)nc3C)c2)C2=C(CC(C)(C)NC2=O)Nc2n[nH]c(C(F)F)c21

IC50 [1, 7]: < 100 nM
IC50 [2, 8]: 100 to 1000 nM
Structure (SMILES): CC[C@@]1(c2cccc(-c3ccncc3)c2)C2=C(C[C@@H](C)CC2=O)Nc2n[nH]cc21

IC50 [1, 11]: < 100 nM
IC50 [1, 3]: < 100 nM
IC50 [2, 12]: 100 to 1000 nM
IC50 [2, 4]: < 100 nM
Structure (SMILES): CC[C@@]1(c2cccc(N(C)c3ncccn3)c2)C2=C(CC(C)(C)CC2=O)Nc2n[nH]cc21

IC50 [1, 3]: < 100 nM
IC50 [2, 4]: < 100 nM
Structure (SMILES): CCC1(c2cccc(-c3cc(C)ncc3C)c2)C2=C(CC(C)(C)CC2=O)Nc2n[nH]c(C)c21 (single isomer, unassigned)

Further lines, the molecule ahead of its results:

Structure (SMILES): CC[C@]1(c2cccc(N(C)c3cccc(C(F)(F)F)n3)c2)C2=C(CC(C)(C)CC2=O)Nc2n[nH]cc21
IC50 [1, 3]: < 100 nM
IC50 [2, 4]: 100 to 1000 nM

Structure (SMILES): CCC1(c2cccc(-c3cncn3C)c2)C2=C(CC(C)(C)NC2=O)Nc2n[nH]c(C)c21 (centres unmarked)
IC50 [1, 7]: < 100 nM
IC50 [2, 8]: < 100 nM

Structure (SMILES): CCC1(c2cccc(-c3cc(C)nc(OC(F)F)c3)c2)C2=C(CC(C)(C)CC2=O)Nc2n[nH]cc21 (centres unmarked)
IC50 [1, 5]: 100 to 1000 nM
IC50 [2, 6]: 1000 to 5000 nM

Structure (SMILES): CC[C@]1(c2cccc(-c3ccncc3C)c2)C2=C(CC3(CCOCC3)NC2=O)Nc2n[nH]cc21
IC50 [1, 11]: 100 to 1000 nM
IC50 [1, 7]: < 100 nM
IC50 [2, 12]: 1000 to 5000 nM
IC50 [2, 8]: < 100 nM

Structure (SMILES): CCC1(c2cccc(S(=O)(=O)CC3CC3)c2)C2=C(CC(C)(C)NC2=O)Nc2n[nH]c(C)c21 (centres unmarked)
IC50 [1, 7]: < 100 nM
IC50 [2, 8]: < 100 nM

Structure (SMILES): CC[C@]1(c2cccc(-c3ccncc3C3CC3)c2)C2=C(CC(C)(C)NC2=O)Nc2n[nH]cc21
IC50 [1, 11]: 100 to 1000 nM
IC50 [1, 3]: < 100 nM
IC50 [2, 12]: 1000 to 5000 nM
IC50 [2, 4]: < 100 nM

Structure (SMILES): CC[C@]1(c2cccc(-c3ccnc(C(F)(F)F)c3)c2)C2=C(CC(C)(C)CC2=O)Nc2n[nH]cc21
IC50 [1, 5]: > 5000 nM
IC50 [2, 6]: > 5000 nM

Structure (SMILES): CC[C@@]1(c2cccc(-c3ccnc(C)c3)c2)C2=C(CC(C)(C)NC2=O)Nc2n[nH]c(C)c21
IC50 [1, 7]: < 100 nM
IC50 [2, 8]: 100 to 1000 nM

Structure (SMILES): CC[C@]1(c2cccc(Br)c2)C2=C(C[C@H](C)CC2=O)Nc2n[nH]cc21
IC50 [1, 7]: > 5000 nM
IC50 [2, 8]: > 5000 nM

Structure (SMILES): CC1(C)CC(=O)C2=C(C1)Nc1n[nH]cc1[C@]21COC2(CN(C(=O)[C@H]3CC3(F)F)C2)C1
IC50 [1, 11]: 100 to 1000 nM
IC50 [1, 9]: < 100 nM
IC50 [2, 12]: 100 to 1000 nM
IC50 [2, 10]: < 100 nM

Structure (SMILES): CC[C@@]1(c2cccc(-c3ccncc3C)c2)C2=C(C[C@]3(CCCOC3)NC2=O)Nc2n[nH]cc21
IC50 [1, 7]: 100 to 1000 nM
IC50 [2, 8]: 1000 to 5000 nM

Structure (SMILES): CC[C@@]1(c2cccc(N3C[C@H](C)[C@@H](C)C3)c2)C2=C(CC(C)(C)CC2=O)Nc2n[nH]cc21
IC50 [1, 3]: 100 to 1000 nM
IC50 [2, 4]: 1000 to 5000 nM
